# Yeast mating assay 2: variants of the scFv Ab-95

Source: Engelhart et al. 2022 (doi:10.1038/s41597-022-01779-4), MIT Lincoln Laboratory and A-Alpha Bio; data file from the FLAb repository.

Target: peptide PDVDLGDISGINAS, taken from heptad repeat 2 (HR2) of SARS-CoV-2 spike.

Parent: Ab-95, a human scFv built as VH, the linker GGGGSGGGGSGGGGS, VL. Only the CDRs of the light chain vary.
VH: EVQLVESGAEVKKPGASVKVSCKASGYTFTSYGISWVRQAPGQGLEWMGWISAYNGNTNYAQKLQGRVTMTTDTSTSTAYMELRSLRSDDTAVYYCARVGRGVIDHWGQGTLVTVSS
VL: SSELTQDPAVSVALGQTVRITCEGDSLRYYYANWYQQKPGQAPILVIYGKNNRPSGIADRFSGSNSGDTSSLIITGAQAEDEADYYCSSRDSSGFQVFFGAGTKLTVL

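The library (AAYL52) carries one to three amino acid substitutions per variant, with no insertions or deletions. AlphaSeq pools MATa yeast showing the antibodies with MATalpha yeast showing the peptide. The frequency of each diploid, read from paired DNA barcodes, reflects how well the two displayed proteins bind. Scores were corrected for input abundance and mapped to Kd with protein pairs of known affinity run in the same pool. The assay was run in three technical replicates.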

The whole VL of each variant is written out.
Affinities are written as log10 Kd with Kd in nM; a lower number is a better binder.
Averages over replicates are reported, and they cover detected replicates only.
An entry "n.d." has no value in the source: the pair was not observed among the diploids in that replicate. This suggests poor binding but is not conclusive.
As a blank, each scFv also met three strains without target: over library AAYL52, 28% of these pairings were detected, typically at 3.91 and seldom below 2.90.

| VL | log10 Kd (nM) by replicate | mean log10 Kd (nM) |
|---|---|---|
| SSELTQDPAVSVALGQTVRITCEGGSLRYYYANWYQQKPGQAPILVIYGKNNSPSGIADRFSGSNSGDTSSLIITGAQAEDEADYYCSSRISSGFQVFFGAGTKLTVL | 3.64 2.96 4.28 | 3.63 |
| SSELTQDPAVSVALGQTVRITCEGDSLRYYMACWYQQKPGQAPILVIYGKNNRPSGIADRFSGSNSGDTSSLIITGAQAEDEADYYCSSRDSSGFQVFFGAGTKLTVL | 4.64 n.d. 3.05 | 3.84 |
| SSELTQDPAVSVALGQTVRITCEGDSLRQYYANWYQQKPGQAPILVIYGKNNRPSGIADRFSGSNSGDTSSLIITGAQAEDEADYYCSSRDSPGFQVNFGAGTKLTVL | n.d. 3.17 n.d. | 3.17 |
| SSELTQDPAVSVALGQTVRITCEGDSLRYYYAHWYQQKPGQAPILVIYGKNNRPSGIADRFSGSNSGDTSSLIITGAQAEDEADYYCSSRDSSWFQVEFGAGTKLTVL | 3.74 n.d. 4.16 | 3.95 |
| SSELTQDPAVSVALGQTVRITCGGDSLRTYYANWYQQKPGQAPILVIYEKNNRPSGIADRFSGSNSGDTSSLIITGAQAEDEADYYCSSRDSSGFQVFFGAGTKLTVL | 3.26 4.06 3.09 | 3.47 |
| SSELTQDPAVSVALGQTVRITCEGDSLRYYYANWYQQKPGQAPILVIYGKNNRRSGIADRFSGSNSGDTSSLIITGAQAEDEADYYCSSRDSSGFQMFFGAGTKLTVL | 3.69 n.d. n.d. | 3.69 |
| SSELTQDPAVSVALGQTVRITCEGDSLRYYYTNWYQQKPGQAPILVIYGKNNRPHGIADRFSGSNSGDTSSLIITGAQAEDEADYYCSSRDSSGQQVFFGAGTKLTVL | 3.02 3.03 3.88 | 3.31 |
| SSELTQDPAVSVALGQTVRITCEGDWLRYYYANWYQQKPGQAPILVIYGKNNRPSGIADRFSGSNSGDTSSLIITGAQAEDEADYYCSSRDWSGFQFFFGAGTKLTVL | 4.63 3.51 n.d. | 4.07 |
| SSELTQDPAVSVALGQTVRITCEGDSLTYYYANWYQQKPGQAPILVIYGKNNRPSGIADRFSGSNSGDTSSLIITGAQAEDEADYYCSSRDSSGFNVFFGAGTKLTVL | 3.10 2.92 2.84 | 2.95 |
| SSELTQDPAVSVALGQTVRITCEYDSLRYYYANWYQQKPGQAPILVIYGKNNEASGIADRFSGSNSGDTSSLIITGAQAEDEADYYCSSRDSSGFQVFFGAGTKLTVL | 5.18 4.40 4.50 | 4.69 |
| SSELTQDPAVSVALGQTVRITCEGDALRYYMANWYQQKPGQAPILVIYGKNNRPSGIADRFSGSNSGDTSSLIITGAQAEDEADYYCSSRDSSGFSVFFGAGTKLTVL | 2.82 2.62 2.51 | 2.65 |
| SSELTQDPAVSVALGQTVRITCECDSLRYYYANWYQQKPGQAPILVIYGKNNRPSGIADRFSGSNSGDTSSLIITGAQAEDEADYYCSSWDSSGCQVFFGAGTKLTVL | 4.44 n.d. 4.25 | 4.35 |
| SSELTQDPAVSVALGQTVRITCEGDSLRYPYANWYQQKPGQAPILVIYAKNNRPDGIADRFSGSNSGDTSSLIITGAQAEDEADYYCSSRDSSGFQVFFGAGTKLTVL | 1.98 1.83 1.89 | 1.90 |
| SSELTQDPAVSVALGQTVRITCEGDCLRYYYANWYQQKPGQAPILVIYGKNNRPLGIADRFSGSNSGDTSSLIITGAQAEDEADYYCSSRDSSGDQVFFGAGTKLTVL | n.d. 4.75 n.d. | 4.75 |
| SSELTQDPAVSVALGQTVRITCEGDSLRYLYANWYQQKPGQAPILVIYGKNNRFSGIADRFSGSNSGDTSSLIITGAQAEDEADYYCSSRDSSGDQVFFGAGTKLTVL | 3.07 3.07 3.17 | 3.10 |

Repeated from above, the 2 best binders with a signal in all replicates:

| VL | log10 Kd (nM) by replicate | mean log10 Kd (nM) |
|---|---|---|
| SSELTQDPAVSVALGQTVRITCEGDSLRYPYANWYQQKPGQAPILVIYAKNNRPDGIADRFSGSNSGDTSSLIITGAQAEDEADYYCSSRDSSGFQVFFGAGTKLTVL | 1.98 1.83 1.89 | 1.90 |
| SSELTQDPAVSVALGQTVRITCEGDALRYYMANWYQQKPGQAPILVIYGKNNRPSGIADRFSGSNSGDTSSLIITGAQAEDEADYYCSSRDSSGFSVFFGAGTKLTVL | 2.82 2.62 2.51 | 2.65 |